The record followed here is ChEMBL document CHEMBL1132937, “Protease inhibitors: synthesis of potent bacterial collagenase and matrix metalloproteinase inhibitors incorporating N-4-nitrobenzylsulfonylglycine hydroxamate moieties” (J Med Chem, 2000).

Chains of the proteins cited; added tags and fusions are not shown. Lines headed by an entry give the natural chain unless they say otherwise; changes in a name come on top.
UniProt P08253: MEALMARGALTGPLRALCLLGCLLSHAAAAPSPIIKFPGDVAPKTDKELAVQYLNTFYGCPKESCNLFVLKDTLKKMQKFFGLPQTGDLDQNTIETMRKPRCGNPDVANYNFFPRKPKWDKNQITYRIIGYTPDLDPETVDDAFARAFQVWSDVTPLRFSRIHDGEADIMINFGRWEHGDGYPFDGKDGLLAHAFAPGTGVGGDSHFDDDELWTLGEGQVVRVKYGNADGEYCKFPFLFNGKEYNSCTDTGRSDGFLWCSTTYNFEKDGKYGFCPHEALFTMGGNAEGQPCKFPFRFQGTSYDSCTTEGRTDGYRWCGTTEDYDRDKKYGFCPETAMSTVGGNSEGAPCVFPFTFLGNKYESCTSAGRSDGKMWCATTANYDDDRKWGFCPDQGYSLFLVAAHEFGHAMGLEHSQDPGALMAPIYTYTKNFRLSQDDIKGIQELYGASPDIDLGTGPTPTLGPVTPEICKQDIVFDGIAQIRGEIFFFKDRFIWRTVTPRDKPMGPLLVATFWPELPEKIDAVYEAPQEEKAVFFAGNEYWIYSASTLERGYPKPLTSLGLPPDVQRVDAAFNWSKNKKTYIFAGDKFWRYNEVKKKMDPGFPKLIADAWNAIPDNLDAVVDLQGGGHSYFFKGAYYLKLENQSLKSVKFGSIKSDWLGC
UniProt P14780: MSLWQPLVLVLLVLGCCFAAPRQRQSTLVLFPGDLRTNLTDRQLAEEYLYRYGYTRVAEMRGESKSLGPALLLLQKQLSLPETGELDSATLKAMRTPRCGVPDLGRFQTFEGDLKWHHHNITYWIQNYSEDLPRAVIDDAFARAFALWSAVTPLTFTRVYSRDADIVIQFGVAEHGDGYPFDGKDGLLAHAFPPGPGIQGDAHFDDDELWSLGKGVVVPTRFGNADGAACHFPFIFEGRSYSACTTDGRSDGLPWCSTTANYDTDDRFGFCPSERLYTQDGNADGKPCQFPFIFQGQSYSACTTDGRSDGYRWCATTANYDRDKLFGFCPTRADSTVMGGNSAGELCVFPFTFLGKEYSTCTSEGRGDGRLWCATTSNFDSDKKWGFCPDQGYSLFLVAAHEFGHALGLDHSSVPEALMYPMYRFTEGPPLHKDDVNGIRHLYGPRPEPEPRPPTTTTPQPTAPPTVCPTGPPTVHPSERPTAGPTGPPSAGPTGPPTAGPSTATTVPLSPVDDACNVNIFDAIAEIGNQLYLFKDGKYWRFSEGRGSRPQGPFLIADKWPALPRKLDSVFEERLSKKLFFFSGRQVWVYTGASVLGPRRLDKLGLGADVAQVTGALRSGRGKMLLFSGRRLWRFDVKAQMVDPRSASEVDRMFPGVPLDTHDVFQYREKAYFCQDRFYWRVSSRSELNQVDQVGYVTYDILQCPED
UniProt P22894: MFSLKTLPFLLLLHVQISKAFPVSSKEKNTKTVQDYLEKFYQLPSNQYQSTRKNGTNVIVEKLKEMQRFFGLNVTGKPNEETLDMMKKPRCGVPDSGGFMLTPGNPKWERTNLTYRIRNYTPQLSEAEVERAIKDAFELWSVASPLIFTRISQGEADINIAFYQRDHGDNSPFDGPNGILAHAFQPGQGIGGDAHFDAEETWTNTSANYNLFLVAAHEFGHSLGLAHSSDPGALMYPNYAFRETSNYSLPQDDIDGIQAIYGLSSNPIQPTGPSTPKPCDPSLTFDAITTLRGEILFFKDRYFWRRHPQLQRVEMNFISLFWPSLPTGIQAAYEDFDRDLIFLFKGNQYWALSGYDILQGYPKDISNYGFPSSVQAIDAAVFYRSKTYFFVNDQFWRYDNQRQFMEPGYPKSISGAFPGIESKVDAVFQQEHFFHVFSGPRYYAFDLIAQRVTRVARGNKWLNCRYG

The target of test [1] is 72 kDa type IV collagenase (Homo sapiens, UniProt P08253).
The next test has as its target T1, Interstitial collagenase (Homo sapiens, UniProt P03956).
T1 sequence (P03956 whole entry): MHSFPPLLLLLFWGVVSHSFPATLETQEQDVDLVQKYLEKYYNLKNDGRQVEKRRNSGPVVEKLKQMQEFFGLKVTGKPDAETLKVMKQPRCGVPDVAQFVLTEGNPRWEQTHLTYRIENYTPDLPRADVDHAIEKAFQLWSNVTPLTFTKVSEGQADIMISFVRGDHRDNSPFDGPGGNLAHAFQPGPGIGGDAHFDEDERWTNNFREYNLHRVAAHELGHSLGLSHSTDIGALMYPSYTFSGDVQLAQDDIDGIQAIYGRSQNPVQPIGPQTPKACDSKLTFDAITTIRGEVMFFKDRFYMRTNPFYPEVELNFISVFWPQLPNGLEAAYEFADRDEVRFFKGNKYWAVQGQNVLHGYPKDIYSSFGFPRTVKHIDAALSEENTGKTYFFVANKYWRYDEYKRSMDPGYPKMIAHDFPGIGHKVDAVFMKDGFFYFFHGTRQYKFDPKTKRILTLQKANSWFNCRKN

Test [2] addresses Matrix metalloproteinase-9 (Homo sapiens, UniProt P14780).
The next test concerns the target Neutrophil collagenase (Homo sapiens, UniProt P22894).

As a reminder, the Ki is the dissociation constant of the complex between target and ligand, obtained from inhibition or displacement. Higher therefore signals a looser hold on the target.

On to `Cc1ccc(S(=O)(=O)NC(=O)Nc2ccc(S(=O)(=O)N(CC(=O)NO)Cc3ccc([N+](=O)[O-])cc3)cc2)cc1`, for which the Ki turned out to be 0.7 nM in test [1], 55 nM at Interstitial collagenase, 0.5 nM in test [2] and 1.2 nM on Neutrophil collagenase.
The matching figures for `O=C(CN(Cc1ccc([N+](=O)[O-])cc1)S(=O)(=O)c1cccc([N+](=O)[O-])c1)NO`: 12 nM, 18 nM, 8 nM and 10 nM.
